# This list holds what a sample rich in highest values left over.
# Key:
# [1] = tested on: RAW-Dual; test: IRF Lucia reporter activity, fold change vs agonist alone; higher = enhanced IRF activity; details: library stock concentration (final ~1000-fold dilution): 10 mM, cytotoxicity flag (confluency mask): not cytotoxic
# How it was run: (§1)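 After 50 nL of library stock was delivered by pin tool to RAW-Dual macrophages (50,000 cells/well, DMEM, 384-well plates), a PRR agonist was added 1 h later and the plates were kept at 37 °C, 5% CO2. Twenty hours later, IRF was read from supernatant by QuantiLuc luminescence and NF-κB by QuantiBlue absorbance at 620 nm. Reporter activity is stated as fold change over agonist-alone wells. Wells with IncuCyte confluency under 70% of agonist controls in both mask sets were counted as cytotoxic.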
# [2] = tested on: RAW-Dual; test: NF-kB SEAP reporter activity, fold change vs agonist alone; higher = enhanced NF-kB activity; details: library stock concentration (final ~1000-fold dilution): 10 mM, cytotoxicity flag (confluency mask): not cytotoxic
# How it was run: as §1
# [3] = agonist: MPLA (TLR4) 0.25 ug/mL
structure (smiles),measurement,setting,value
COc1cc(Br)c(C[N+]2(CCOCCC3CCC4CC3C4(C)C)CCOCC2)cc1OC (centres undefined),IRF Lucia reporter activity,[1]; agonist: 3'3'-cGAMP (STING) 10 ug/mL,0.368
same,IRF Lucia reporter activity,[1]; agonist: LPS (TLR4) 0.1 ug/mL,1.31
same,IRF Lucia reporter activity,[1]; [3],2.04
same,NF-kB SEAP reporter activity,[2]; agonist: Imiquimod (TLR7) 2.5 ug/mL,1.39
same,NF-kB SEAP reporter activity,[2]; agonist: LPS (TLR4) 0.1 ug/mL,1.01
same,NF-kB SEAP reporter activity,[2]; [3],1.43
same,NF-kB SEAP reporter activity,[2]; agonist: ODN 1826 (TLR9) 0.5 ug/mL,0.599
same,NF-kB SEAP reporter activity,[2]; agonist: Pam2CSK4 (TLR2/6) 0.1 ug/mL,0.725
same,NF-kB SEAP reporter activity,[2]; agonist: Pam3CSK4 (TLR2/1) 0.1 ug/mL,0.753
